The values that follow are results of earlier work, collected in patent US5763404A, “Methods for using LHRH antagonists with low histamine release” (priority 1995, dated 1998).

The subject of this series is rats. The settings on record: administered to rats; cited from earlier work.

On to “[N-Ac-D-2-Nal^1,D-4-F-Phe^2,D-Trp^3,D-Arg^6 ]-LHRH”, for which the edema result was “caused edema of the face and extremities”.
